Converted amounts (≈) assume the structure as drawn.

In data set [1] the test system is P. aeruginosa ATCC 27853. It is filed as cell-based, Pseudomonas aeruginosa. To be noted: MHB, 2 × 10^5 CFU/mL, 18 h at 37 °C, absorbance 600 nm, triplicate. Here is the method:
(§1) We detected the antimicrobial activity of peptides against Gram-negative bacteria (P. aeruginosa ATCC 27853 and A. baumannii KCTC 2508) and Gram-positive bacteria (S. aureus ATCC 25923 and B. subtilis KCTC 2217). The minimum inhibitory concentrations (MICs) of the parental and truncated peptides were determined using the microbroth dilution method, as previously described (Jorgensen [1993]). The bacteria were incubated overnight with shaking at 37 °C. The bacteria were diluted to 2 × 10^5 colony forming units (CFU)/mL in Mueller–Hinton broth (MHB) media. The peptides were serially diluted in 10 mM sodium phosphate buffer and then 50 µL of the bacteria and 50 µL of the peptide solutions were mixed and incubated for 18 h at 37 °C. The MICs were measured as the absorbance at 600 nm using a Versa Max microplate reader (Molecular Devices, Sunnyvale, CA, USA). The samples were analyzed in triplicate.

In data set [2] the test system is S. aureus ATCC 25923. It counts as cell-based, Staphylococcus aureus. To be noted: MHB, 2 × 10^5 CFU/mL, 18 h at 37 °C, absorbance 600 nm, triplicate. Here is the method:
as §1

The subject of data set [3] is red blood cells (RBCs) from mice. Nature of the data set: Hemolytic activity. To be noted: mouse RBCs 8% in PBS, peptide 12.5 µM, 1 h at 37 °C, absorbance 414 nm. It counts as cell-based. Here is the method: To determine the hemolytic activities of the peptides against red blood cells (RBCs) from mice, RBCs were centrifuged at 2000×g for 5 min and washed with 1 mL of phosphate-buffered saline solution (PBS) three times. The supernatant was removed and the RBCs were diluted to 8% in PBS. After serial dilution, 60 µL of the RBCs and peptides were added to a 96-well plate and incubated at 37 °C for 1 h. The plate was centrifuged at 1500×g for 10 min, 100 µL of the supernatant was transferred to a new plate, and the absorbance was measured at 414 nm (Versa-Max enzyme-linked immunosorbent assay (ELISA) reader). Additionally, 0.1% Triton X-100 and PBS were used as positive and negative controls, respectively. The hemolytic activity percentage (hemolysis rate) was calculated using the following equation (Han et al. [2016]): Hemolysis percentage%=peptide solution-negative control/positive control-PBS×100.

As to `CC[C@H](C)[C@H](NC(=O)CN)C(=O)NCC(=O)N[C@@H](C)C(=O)N[C@H](C(=O)N[C@@H](CC(C)C)C(=O)N[C@@H](CCCCN)C(=O)N[C@H](C(=O)N[C@@H](CC(C)C)C(=O)N[C@H](C(=O)N[C@H](C(=O)NCC(=O)N[C@@H](CC(C)C)C(=O)N1CCC[C@H]1C(=O)N[C@@H](C)C(=O)N[C@@H](CC(C)C)C(=O)N[C@H](C(=O)N[C@@H](CO)C(=O)N[C@@H](Cc1c[nH]c2ccccc12)C(=O)N[C@H](C(=O)N[C@@H](CCCCN)C(=O)N[C@@H](CCCNC(=N)N)C(=O)N[C@@H](CCCCN)C(=O)N[C@@H](CCCNC(=N)N)C(=O)N[C@@H](CCC(N)=O)C(=O)N[C@@H](CCC(N)=O)C(N)=O)[C@@H](C)CC)[C@@H](C)CC)[C@@H](C)O)[C@@H](C)O)C(C)C)C(C)C` [Melittin, reference compound], the MIC was determined as 3.13 µM (≈ 8.91 µg/mL) in data set [1] and 0.78 µM (≈ 2.22 µg/mL) in data set [2]. Further, in data set [3], the hemolysis entry is reported as “approximately 91%”.

In general, MIC refers to the smallest concentration in the dilution series that meets the test's criterion for growth inhibition. Higher therefore signals a less susceptible organism.

The record behind these values is paper PMC6667604, “Mechanism of action of antimicrobial peptide P5 truncations against Pseudomonas aeruginosa and Staphylococcus aureus” (AMB Express, 2019).
